In PMC2409616 (British Journal of Cancer, 2004):

Assays:
SiHa-NTR^puro = experiment: 4-h exposure IC50 assay in NTR transfectant vs parental line; assay type: cell-based, human; conditions: 4-h exposure IC50 assays; after 4 weeks growth without puromycin

NC(=O)c1cc(N2CC2)c([N+](=O)[O-])cc1[N+](=O)[O-] [compound 1, 5-(aziridin-1-yl)-2,4-dinitrobenzamide, reference compound]
AA8/UV4 intra-experiment IC50 ratio (UV4): 22.1±5.2
Sensitivity of SiHa-NTR^puro relative to the parental line (SiHa-NTR^puro): 440 fold
